Data as given in ChEMBL document CHEMBL1614632, “Trend analysis of a database of intravenous pharmacokinetic parameters in humans for 670 drug compounds” (Drug Metab Dispos, 2008).

Assays:
clinical [1] = conditions: human, in vivo, iv, t1/2
clinical [2] = test: clinical
clinical [3] = test: clinical; remark: listed apart in the source
clinical [4] = test: clinical; remark: listed apart in the source
clinical [5] = test: clinical; remark: listed apart in the source

| Structure (SMILES) | half-life (clinical [1]) [h] | fraction unbound (clinical [2]) | MRT (clinical [3]) [h] | clearance (clinical [4]) [mL/min/kg] | Vd (clinical [5]) [L/kg] |
| --- | --- | --- | --- | --- | --- |
| CC(C)C[C@H](NC(=O)[C@H](Cc1ccccc1)NC(=O)c1cnccn1)B(O)O [BORTEZOMIB] | 18 | 0.17 | 8.8 | 19 |  |
| O=c1[nH]cc(F)c(=O)[nH]1 [FLUOROURACIL] | 0.12 |  | 0.15 |  |  |
| CNC(=O)c1c(I)c(NC(C)=O)c(I)c(C(=O)O)c1I [IOTHALAMIC ACID] |  | 0.98 |  |  |  |
| NC[C@H]1O[C@H](O[C@H]2[C@H](O)[C@@H](O[C@H]3O[C@H](CO)[C@@H](O)[C@H](N)[C@H]3O)[C@H](N)C[C@@H]2N)[C@H](O)[C@@H](O)[C@@H]1O [KANAMYCIN] |  | 0.99 |  |  |  |
| N#Cc1ccc(C(c2ccc(C#N)cc2)n2cncn2)cc1 [LETROZOLE] | 45 |  | 59 |  |  |
| Sc1ncnc2nc[nH]c12 [MERCAPTOPURINE ANHYDROUS] |  | 0.85 |  | 15 |  |
| CN(C)c1ccc(O)c2c1C[C@H]1C[C@H]3[C@H](N(C)C)C(O)=C(C(N)=O)C(=O)[C@@]3(O)C(O)=C1C2=O [MINOCYCLINE] | 17 |  | 22 | 1.2 | 1.6 |
| C[C@]12C=CC(=O)C=C1CC[C@@H]1[C@@H]2[C@@H](O)C[C@@]2(C)[C@H]1CC[C@]2(O)C(=O)CO [PREDNISOLONE] | 3.4 |  | 4.8 | 2.9 | 0.86 |
| CC(CN1c2ccccc2Sc2ccccc21)N(C)C (stereo unspecified) [PROMETHAZINE] | 14 |  | 17 |  |  |
| O=P(O)(O)C(O)(Cc1cccnc1)P(=O)(O)O [RISEDRONIC ACID] | 200 |  |  | 1.5 |  |
| Cn1nnc2c(C(N)=O)ncn2c1=O [TEMOZOLOMIDE] |  |  | 2.3 | 3.6 |  |
| CC[C@@]1(O)C(=O)OCc2c1cc1n(c2=O)Cc2cc3c(CN(C)C)c(O)ccc3nc2-1 [TOPOTECAN] | 2.3 |  | 2.3 |  |  |
| O=C(CCCCCCC(=O)Nc1ccccc1)NO [VORINOSTAT] | 0.76 |  |  | 28 |  |
| Cc1cn([C@H]2C[C@H](N=[N+]=[N-])[C@@H](CO)O2)c(=O)[nH]c1=O [ZIDOVUDINE] |  |  |  | 25 |  |
